We go through one molecule from paper PMC6072017, “Reversible covalent direct thrombin inhibitors” (PLoS ONE, 2018).

As usually defined, the IC50 is the concentration that gives 50% inhibition. A low value points to inhibition by little substance.

For one experiment, the target named is thrombin (Homo sapiens, UniProt P00734). Kind of experiment: Enzyme inhibition assay, chromogenic substrate S-2238.
Experiment [1] concerns the target T1, thrombin/thrombomodulin complex (Homo sapiens, UniProt P00734). Put plainly: Protein C activation by thrombin/thrombomodulin. Format: biochemical.
For a further experiment, the target named is human α-thrombin (Homo sapiens, UniProt P00734). Kind of experiment: Fibrinogen cleavage (fibrinopeptide A by HPLC) in human platelet-poor plasma. Format: biochemical.
Experiment [2] addresses T1, thrombin/thrombomodulin complex. Kind of experiment: biochemical.

For the molecule `CC1CNc2c(cccc2S(=O)(=O)N[C@@H](CCCNC(=N)N)C(=O)N2CC[C@@H](C)C[C@@H]2C(=O)O)C1` (stereo partly shown) [Argatroban], the IC50 against thrombin is 220 ± 100 nM; in experiment [1] it was 7 ± 2 nM; against human α-thrombin, 340 ± 110 nM; in experiment [2], 190 ± 40 nM.
